Test results reported in PMC10131585, “Computational design of a cyclic peptide that inhibits the CTLA4 immune checkpoint” (RSC Medicinal Chemistry, 2023).

Details: inferred by the authors from failed/successful synthesis and number of charged/hydrophobic residues

cyc-SIITVLTPTGWVAAEFS (head to tail) [Peptide 12]
Solubility (in words): low solubility
